The text below walks through data of US20070060508A1, “Binding molecules” (priority 2002, published 2007).

One data set has as its system Daudi cells. In words: Cytotoxicity test: NK effector cells (YT) incubated with tumor target cells (Daudi) plus test peptide, LDH release. It counts as cell-based. The following applies: positive control, Human IL-2 5 nM, YT and Daudi cells 1:10, 16 h. The procedure: For the cytotoxicity measurement, NK cells, which specifically kill tumor cells, as effector cells were incubated with tumor cells as target cells in the presence of the test peptides. The cytotoxicity measurement was performed by measuring the release of lactate dehydrogenase (LDH) according to the standard protocol by a cytotoxicity test kit (Promega, Germany) and in a microwell plate reader. As NK cells (E), YT cells (DSMZ, Germany) were used. As target cells (T), Daudi cells (DSMZ, Germany) were used. YT and Daudi cells were seeded in microwell plates at a ratio of 1:10 and incubated in the presence of 0.3, 3, 30:M test peptide for 16 h. Human IL-2 (Sigma) in a concentration of 5 nM served as the positive control.
On the next day, 10:l of lysis buffer each were added to the cells and the cells were incubated for additional 2 h. Subsequently, 5:l of the agent were transferred into a second microwell plate and combined with 50:l of substrate buffer. After a 30 min incubation, the reaction was terminated by 50:l of stop solution and the absorption of the formed MTT color complex was measured in a microwell plate reader.

The conditions of data set [1]: cited from earlier work.
The conditions of data set [2]: human, in vivo; cited from earlier work.

For the substance “IL-2: Human IL-2 (Sigma), cytokine of 133 amino acids, positive control; recombinant product Aldesleukin, Proleukin”, in the data set on Daudi cells, the Cytotoxicity is given as 60%. In data set [1] (observed during a study), the treatment-related mortality rate was 4%. Besides, in data set [1] (patients, tumor therapy), the “treated patients showing a reaction to the IL2 therapy” value is on record as “about 30%”. Moreover, the half life result in data set [2] is listed as “below 10 min”.
